Test results from patent US20260200947A1, “FUSED CYCLIC COMPOUNDS AND USE THEREOF” (Jacobio Pharmaceuticals Co., Ltd., priority 2022, published 2026).
Where two headings read alike, the source gives them in different places.

Protein sequences, listed by entry. Tags and fused reporters are not part of them. Residues count along the entry.
UniProt P01116, 1-169 isoform 2 G12D limits assumed: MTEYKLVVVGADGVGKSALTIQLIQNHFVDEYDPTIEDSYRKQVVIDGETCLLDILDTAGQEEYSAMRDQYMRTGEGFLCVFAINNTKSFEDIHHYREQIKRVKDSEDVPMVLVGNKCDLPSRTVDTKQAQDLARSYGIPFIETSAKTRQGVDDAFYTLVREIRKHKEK
UniProt P01116, 1-169 isoform 2 G12V limits assumed: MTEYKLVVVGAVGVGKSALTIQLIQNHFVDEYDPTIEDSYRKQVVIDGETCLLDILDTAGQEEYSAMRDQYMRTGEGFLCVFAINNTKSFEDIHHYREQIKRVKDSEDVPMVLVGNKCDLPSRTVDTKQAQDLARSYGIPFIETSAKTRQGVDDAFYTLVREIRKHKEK

Experiments:
[1] = biological target: GppNp-KRAS G12D (Homo sapiens, UniProt P01116, G12D); experiment: GTP-K-Ras and cRAF interaction assay, GppNp-KRAS G12D; conditions: read-out: Biochemical assays, IC50, KRAS G12D GppNp, GppNp-loaded K-Ras G12D, cRAF RBD interaction, HTRF
[2] = biological target: GDP-KRAS G12D (Homo sapiens, UniProt P01116, G12D); experiment: SOS1 catalyzed nucleotide exchange assay, GDP-KRAS G12D
[3] = biological target: GDP-KRAS G12V (Homo sapiens, UniProt P01116, G12V); experiment: SOS1 catalyzed nucleotide exchange assay, GDP-KRAS G12V
[4] = biological target: GppNp-KRAS G12V (Homo sapiens, UniProt P01116, G12V); experiment: GTP-K-Ras and cRAF interaction assay, GppNp-KRAS G12V; conditions: read-out: Biochemical assays, IC50, KRAS G12V GppNp, GppNp-loaded K-Ras G12V, cRAF RBD interaction, HTRF
[5] = test system: SW620 cells (K-Ras G12V); experiment: Phospho-ERK1/2(THR202/TYR204) HTRF assay, SW620; conditions: read-out: pERK, IC50, SW620, 2 hours incubation
[6] = read-out: Biochemical assays, IC50, KRAS G12D GDP, GDP form K-Ras G12D, TR-FRET
[7] = read-out: Biochemical assays, IC50, KRAS G12V GDP, GDP form K-Ras G12V, TR-FRET
[8] = tested form: trifluoroacetate (TFA salt)

| Compound | IC50 [1] [nM] | IC50 [2, 6] [nM] | IC50 [3, 7] [nM] | IC50 [4] [nM] | IC50 [5] [nM] | IC50 [1, 8] [nM] | IC50 ([2]; read-out: Biochemical assays, IC50, KRAS G12D GDP, GDP form K-Ras G12D, TR-FRET, tested form: trifluoroacetate (TFA salt)) [nM] | IC50 ([3]; read-out: Biochemical assays, IC50, KRAS G12V GDP, GDP form K-Ras G12V, TR-FRET, tested form: trifluoroacetate (TFA salt)) [nM] | IC50 [4, 8] [nM] |
| --- | --- | --- | --- | --- | --- | --- | --- | --- | --- |
| C#Cc1c(F)ccc2cc(N)cc(-c3nc4c5c(nc(OC[C@@]67CCCN6C[C@H](F)C7)nc5c3F)N3C[C@H](OC)COC[C@H]3N4C)c12 | 341 | 9.92 | 3.5 | 686 |  |  |  |  |  |
| C#Cc1c(F)ccc2cc(N)cc(-c3nc4c5c(nc(OC[C@@]67CCCN6C[C@H](F)C7)nc5c3F)N3CCCC[C@H](Cl)[C@H]3N4C)c12 | 21.6 | 0.548 | 0.887 | 63.7 |  |  |  |  |  |
| C#Cc1c(F)ccc2cc(N)cc(-c3nc4c5c(nc(OC[C@@]67CCCN6C[C@H](F)C7)nc5c3F)N3CCCCC[C@@H]3N4C)c12 | > 1000 | 341 | 40.2 | > 1000 |  |  |  |  |  |
| C#Cc1c(F)ccc2cc(N)cc(-c3nc4c5c(nc(OCC67CCCN6CC(F)C7)nc5c3F)N3CC(C)(O)COCC3N4C)c12 (single isomer, unassigned) [Compound 156B] | > 1000 | 63.8 | 37.8 | > 1000 |  |  |  |  |  |
| C#Cc1c(F)ccc2cc(N)cc(-c3nc4c5c(nc(OCC67CCCN6CC(=C(F)F)C7)nc5c3F)N3CCCOCC3CO4)c12 (single isomer, unassigned) [Compound 26A] | 109 | 2.3 | 2.57 | 220 | 6.99 |  |  |  |  |
| C#Cc1c(F)ccc2cc(N)cc(-c3nc4c5c(nc(OC[C@@]67CCCN6C[C@H](F)C7)nc5c3F)N3CCCCOC[C@H]3N4C)c12 | 63.9 | 2.1 | 1.45 | 158 | 5.23 |  |  |  |  |
| C#Cc1c(F)ccc2cc(N)cc(-c3nc4c5c(nc(OC[C@@]67CCCN6C[C@H](F)C7)nc5c3F)N3CC(F)(F)CCC[C@H]3N4C)c12 | 47.4 | 1.45 | 1.45 | 225 |  |  |  |  |  |
| C#Cc1c(F)ccc2cc(N)cc(-c3nc4c5c(nc(OCC67CCCN6CC(=CF)C7)nc5c3F)N3CCCOC[C@H]3CO4)c12 (single isomer, unassigned) [Compound 5A] |  |  |  |  |  | 104 | 1.82 | 1.12 | 130 |
| C#Cc1c(F)ccc2cc(N)cc(-c3nc4c5c(nc(OCC67CCCN6CC(F)C7)nc5c3F)N3CC(C)(O)COCC3N4C)c12 (single isomer, unassigned) [Compound 156A] | 126 | 3.4 | 1.98 | 440 |  |  |  |  |  |
| C#Cc1c(F)ccc2cc(N)cc(-c3nc4c5c(nc(OC[C@@]67CCCN6C[C@H](F)C7)nc5c3F)N3CCCCC[C@H]3C4=C)c12 | 98.5 | 1.67 | 1.96 | 153 | 5.71 |  |  |  |  |
| C#Cc1c(F)ccc2cc(N)cc(-c3nc4c5c(nc(OCC67CCCN6CC(=C(F)F)C7)nc5c3F)N3CCCOCC3CO4)c12 (single isomer, unassigned) [Compound 26B] | 63.2 | 0.551 | 0.839 | 120 | 2.05 |  |  |  |  |
| C#Cc1c(F)ccc2cc(N)cc(-c3nc4c5c(nc(OC[C@@]67CCCN6C[C@H](F)C7)nc5c3F)N3CCCCC[C@H]3N4C)c12 | 29.3 | 1.09 | 1.08 | 123 | 1.84 |  |  |  |  |
| C#Cc1c(F)ccc2cc(N)cc(-c3nc4c5c(nc(OC[C@@]67CCCN6C[C@H](F)C7)nc5c3F)N3CCC=C[C@@H](F)[C@@H]3N4C)c12 | > 1000 | 142 | 63.9 | > 1000 |  |  |  |  |  |
